The entries are a selection whose mix differs from that of the whole data set. Records with an inconclusive call do not appear. Active and inactive are the calls of the source. Calls follow the shape of the dose curve; as a rule, active = well fitted inhibition curve with a large enough effect; inconclusive = small, poorly fitted or top-dose-only effect, or effect the other way; inactive = flat fitted curve, though single readings scatter.
Test: qHTS Assay for Inhibitors of the ERK Signaling Pathway using a Homogeneous Screening Assay; Stimulation with EGF; also: nearly all actives have a fitted effect of over 55% in size;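 as to activity change, negative = inhibition: plate controls were stimulated vehicle wells for no effect and unstimulated vehicle basal for full effect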
Conditions: HEK293-V1b, EGF-stimulated phospho-ERK AlphaScreen; series mostly up to 57.5 µM; activity change, negative = inhibition: at the top concentration
Potency is read from the fitted curve at half-maximal effect.

SMILES	activity change, negative = inhibition	Potency
CCOC(=O)Nc1ccc([As](=O)(O)O)c(O)c1	inactive: 1.84%	
Cc1cc(SC(NC(=O)c2ccccc2)C(Cl)(Cl)Cl)nc(C(C)C)n1 (configuration not stated)	inactive: -17.2% [at 11.5 µM]	
CCOC(=O)Nc1cccc([As](=O)(O)O)c1	inactive: -9.96%	
O=P(Nc1ccccn1)(c1cccc2ccccc12)c1cccc2ccccc12	inactive: 0.76% [at 11.5 µM]	
Cc1cc(SC(NC=O)C(Cl)(Cl)Cl)ncn1 (configuration not stated)	inactive: 3.29% [at 11.5 µM]	
O=[N+]([O-])c1ccc(Nc2ccc(Oc3ccc([N+](=O)[O-])cc3[N+](=O)[O-])cc2)c([N+](=O)[O-])c1	inactive: 4.15%	
CCOC(=O)c1ccc(NC(=O)C(C)(CCl)SC)cc1 (configuration not stated)	inactive: 6.3%	
CCC(C)N(CC(C)C)C(=S)SC(NC(C)=O)C(Cl)(Cl)Cl (configuration not stated)	inactive: 7.9% [at 11.5 µM]	
Cc1c2c(nc3ccccc13)SC(C(Cl)Cl)C2 (configuration not stated)	inactive: 5.42% [at 11.5 µM]	
COc1cc(I)ccc1[As](=O)(O)O	inactive: -4.2%	
COc1ccc2nc(NP(=O)(c3ccccc3)c3ccccc3)sc2c1	inactive: -0.612% [at 11.5 µM]	
COc1ccc(N/C(=N/P(=O)(N2CCOCC2)N2CCOCC2)N2CCOCC2)cc1	inactive: 10.5%	
C[As](=O)(O)c1cccc(C(=O)O)c1	inactive: -0.831%	
O=[As](O)(c1ccc(O)cc1)c1ccccc1O	inactive: 6.94%	
Cc1ccc(OP(=O)(Nc2ccc([N+](=O)[O-])cn2)Oc2ccc(C)cc2)cc1	inactive: -7.54%	
Cc1ccc2nc3c(c(C)c2c1)CC(C(Cl)Cl)S3 (configuration not stated)	inactive: 9.43% [at 11.5 µM]	
ClCCSc1nnc(-c2cccnc2)o1	inactive: 6.38% [at 11.5 µM]	
CC(C)c1ccc(OP(=O)(Nc2ccccn2)Oc2ccccc2F)cc1 (configuration not stated)	inactive: -11.8%	
O=[N+]([O-])c1cc([N+](=O)[O-])c(-c2ccn[nH]2)s1	inactive: 1.92% [at 11.5 µM]	
CC(C)NC(=O)NP(=O)(Oc1ccccc1)Oc1ccccc1	inactive: -4.43% [at 11.5 µM]	
O=P(Nc1nccs1)(Oc1ccccc1)Oc1ccccc1	inactive: 4.99% [at 11.5 µM]	
Nc1ccccc1[As](=O)(O)c1ccccc1	inactive: 3%	
O=C(O)COc1ccc([As](=O)(O)O)cc1[N+](=O)[O-]	inactive: 0.197%	
O=[N+]([O-])CC(O)c1ccc([N+](=O)[O-])cc1 (configuration not stated)	inactive: 3.04% [at 11.5 µM]	
NC(=O)Nc1ccc([As](=O)(O)O)cc1	inactive	

SMILES	activity change, negative = inhibition	Potency
CN(C(=O)Cc1ccccc1)[C@@H]1CC[C@]2(CCCO2)C[C@H]1N1CCCC1	inactive	
CN(C(=O)Cc1ccc(Cl)c(Cl)c1)[C@@H]1CC[C@]2(CCCO2)C[C@H]1N1CCCC1	inactive: -8.19% [at 11.5 µM]	
O=C(OC1CN2CCC1CC2)c1ccc(Cl)cc1 (configuration not stated)	inactive: -0.885%	
COc1cc(C(=O)NCC2(N3CCOCC3)CCCCC2)cc(Cl)c1OC(C)C	inactive: -3.56% [at 11.5 µM]	
O=[As](O)(O)c1cccnc1	inactive: 1%	
O=[As](O)(c1cccc(O)c1)c1cccc(O)c1	inactive: 4.04%	
Nc1cccc2c([As](=O)(O)O)cccc12	inactive: -8.86%	
Cc1ccc(NCCc2c([N+](=O)[O-])cc([N+](=O)[O-])cc2[N+](=O)[O-])cc1		active: 28.2 µM
CCCOP(=S)(Nc1nc(N)cc(=O)[nH]1)OCCC	inactive: -10.3%	
CCOP(=O)(Nc1cccc2ccccc12)OCC	inactive: -13.5% [at 11.5 µM]	
COc1cc(C2NCCC3(OCCO3)C2(C)C)cc(OC)c1OC (configuration not stated)	inactive: -18.8% [at 11.5 µM]	
CCOP(=O)(Nc1ccc(C)cn1)OCC	inactive: -13%	
CC(C)(C)C(=O)NC(Sc1ncccn1)C(Cl)(Cl)Cl (configuration not stated)	inactive: -2.01%	
CC(C)/C=N\N=C(\N)N[N+](=O)[O-]	inactive: -5.82% [at 11.5 µM]	
CN(C(=O)Cc1ccc(Cl)c(Cl)c1)[C@@H]1CCCC[C@H]1N1CCCC1	inactive	
O=[As](O)(c1ccccc1Br)c1ccccc1Br	inactive: -4.31%	
CC1CCC(C(C)C)C(OP(=O)(Nc2ccccn2)c2ccccc2)C1 (configuration not stated)	inactive: -11.6% [at 11.5 µM]	
CN(C)C1(CNC(=O)c2ccc(S(C)(=O)=O)cc2)CCCCC1	inactive: -3.22%	
O=C(/C=C/c1ccccc1)OC1CN2CCC1CC2 (configuration not stated)	inactive: 2.96%	
Nc1cccc([As](=O)(O)c2ccccc2)c1	inactive: 9.27%	
O=[As](O)(c1cccs1)c1cccs1	inactive: -4.35%	
O=P(Nc1ccccn1)(c1ccc(Br)cc1)c1ccc(Br)cc1	inactive: -11.9% [at 11.5 µM]	
C[C@H]1OP(=O)(Oc2ccccc2)[C@H](O)[C@H](O)[C@H]1N=[N+]=[N-] (some centres not stated)	inactive: -8.56%	
O=P(Nc1nc2ccccc2s1)(c1ccccc1)c1ccccc1	inactive: -5.12%	
O=[As](O)(c1ccccc1)c1ccc(O)cc1	inactive: 5.33%	

SMILES	activity change, negative = inhibition	Potency
O=[N+]([O-])c1ncn(CCn2cnc([N+](=O)[O-])n2)n1	inactive: 1.07%	
CC(=O)NC(SC(=S)N(C)C)C(Cl)(Cl)Cl (configuration not stated)	inactive: -7.77% [at 11.5 µM]	
Nc1ccc([As](=O)(O)c2ccc([N+](=O)[O-])cc2)cc1	inactive: 12.9%	
C(Cc1nn[nH]n1)Cc1nn[nH]n1	inactive: -2.35% [at 11.5 µM]	
CC(C)C(=O)NC(Sc1ccccc1)C(Cl)(Cl)Cl (configuration not stated)	inactive: 4.74% [at 11.5 µM]	
C[C@@H]1C=CCP(=O)(Oc2ccccc2)O1 (some centres not stated)	inactive: -0.987%	
C[C@H]1OP(=O)(Oc2ccccc2)C[C@@H]2O[C@@H]21 (some centres not stated)	inactive: -4.45%	
CC(=O)Nc1ccc(Oc2c([N+](=O)[O-])cc([N+](=O)[O-])cc2[N+](=O)[O-])cc1	inactive: 0.0655% [at 11.5 µM]	
CC(=O)Nc1ccc([As](=O)(O)O)c(O)c1	inactive: -0.46%	
Cc1ccc(NP(=O)(Oc2cccc(C)c2)Oc2cccc(C)c2)nc1	inactive: -11.3%	
c1ccc(-c2nn[nH]n2)c(-c2nn[nH]n2)c1	inactive: 6.67% [at 11.5 µM]	
CCNC(=S)/N=C(\N)N[N+](=O)[O-]	inactive: -9.16% [at 11.5 µM]	
O=C(NC1CCS(=O)(=O)C1)NP(=S)(Oc1ccccc1)Oc1ccccc1 (configuration not stated)	inactive: -0.564% [at 11.5 µM]	
CN(C(=O)Cc1ccc(Cl)c(Cl)c1)[C@@H]1CCCC[C@@H]1N1CCCC1	inactive: 0.132% [at 11.5 µM]	
Cc1ccc(OP(=O)(Nc2ccccn2)Oc2ccc(C)cc2)cc1	inactive: -9.28% [at 11.5 µM]	
CC(=O)NC(SC(=S)N(CC(C)C)CC(C)C)C(Cl)(Cl)Cl (configuration not stated)	inactive: -1.63% [at 11.5 µM]	
CN(C)C(=O)Oc1noc2ccccc12	inactive: -7.52%	
O=c1c2cc([N+](=O)[O-])ccc2[nH]c2c([N+](=O)[O-])cc([N+](=O)[O-])cc12	inactive: 5.18% [at 11.5 µM]	
Cc1ccccc1OP(=O)(Nc1ccccn1)Oc1ccccc1C	inactive: 6.95%	
O=P(Nc1nc2ccc(Cl)cc2s1)(c1ccccc1)c1ccccc1	inactive: 11.6%	
O=C(O)c1ccccc1[As](=O)(O)O	inactive: -10%	
CC(=O)Nc1ccc([As](=O)(O)O)cc1	inactive: -0.766%	
Cc1ccc(NP(=O)(Oc2ccccc2F)Oc2ccccc2F)nc1	inactive: 6.24%	
CN(C(=O)Cc1ccc(Cl)c(Cl)c1)[C@H]1CCCC[C@@H]1N1CCCC1	inactive: -0.48% [at 11.5 µM] [middle of 5 runs]	
CCOP(=O)(Nc1ccccc1)OCC	inactive: 3.65%	

SMILES	activity change, negative = inhibition	Potency
Cc1cc(SC(NC(=O)c2ccc(F)cc2)C(Cl)(Cl)Cl)ncn1 (configuration not stated)	inactive: -0.0091% [at 11.5 µM]	
Nc1cccc2ccc([As](=O)(O)O)cc12	inactive: 5.29%	
CCN(N=Nc1nonc1N)c1nonc1N	inactive: 1.72% [at 11.5 µM]	
Cc1ccc(N/C(=N/P(=O)(N2CCOCC2)N2CCOCC2)N2CCOCC2)cc1	inactive: 0.0324% [at 11.5 µM]	
NC(=O)c1cc([N+](=O)[O-])cc([N+](=O)[O-])c1N	inactive: 2.16% [at 11.5 µM]	
Clc1ccc(Cl)c(NC2=NCC(CBr)S2)c1 (configuration not stated)	inactive: 33.7%	
CN1CCCC(OC(=O)C(c2ccccc2)c2ccccc2)C1 (configuration not stated)	inactive: 8.11% [at 11.5 µM]	
Cc1ccc(OP(=O)(Nc2nccs2)Oc2ccc(C)cc2)cc1	inactive: 2.66%	
COc1ccccc1OP(=O)(Nc1ccc(C)cn1)Oc1ccccc1OC	inactive: -2.49% [at 11.5 µM]	
O=C(NC(Sc1ccncn1)C(Cl)(Cl)Cl)c1ccccc1 (configuration not stated)	inactive: -0.84% [at 11.5 µM]	
Nc1cc(N)c2nonc2c1[N+](=O)[O-]	inactive: 9.59%	
COc1ccc(C2=NCC(CBr)S2)cc1 (configuration not stated)	inactive: 1.38% [at 11.5 µM]	
Cc1ccc(NP(=O)(Oc2ccccc2)Oc2ccccc2)nc1	inactive: -2.12% [at 11.5 µM]	
CCN(/C(=N/P(=O)(N1CCOCC1)N1CCOCC1)N1CCOCC1)c1ccc(OC)cc1	inactive: -2.18% [at 11.5 µM]	
Nc1ccc([As](=O)(O)c2ccc(N)cc2)cc1	inactive: -8.07%	
CN(C)C(=O)OCCc1n(C)cc[n+]1C	inactive: 1.46% [at 11.5 µM]	
CC(C)=N/N=C(\N)N[N+](=O)[O-]	inactive: 1.11% [at 11.5 µM]	
O=C(Nc1cc([As](=O)(O)O)ccc1O)c1ccccc1	inactive: -1.55%	
O=[N+]([O-])c1ncn(CCn2ncnc2[N+](=O)[O-])n1	inactive: -9.62% [at 11.5 µM]	
CC(C)(C)C(=O)NC(Sc1ccncn1)C(Cl)(Cl)Cl (configuration not stated)	inactive: 4.18%	
O=C(O)CNc1ccc([As](=O)(O)O)cc1	inactive: 4.95%	
O=[N+]([O-])c1cccc(NC2=NCC(CBr)S2)c1 (configuration not stated)	inactive: -1.5%	
